# Literature values as cited in patent US20180280372A1, “COMPOSITIONS AND METHODS FOR INHIBITING AUTOPHAGY AND CONTRACEPTION” (Washington University, priority 2016, published 2018).
# Sequences of proteins named here, by UniProt entry; tags and fusion partners are left off. A change or cut given only in a name is not applied to a line headed by its entry.
# UniProt P54578: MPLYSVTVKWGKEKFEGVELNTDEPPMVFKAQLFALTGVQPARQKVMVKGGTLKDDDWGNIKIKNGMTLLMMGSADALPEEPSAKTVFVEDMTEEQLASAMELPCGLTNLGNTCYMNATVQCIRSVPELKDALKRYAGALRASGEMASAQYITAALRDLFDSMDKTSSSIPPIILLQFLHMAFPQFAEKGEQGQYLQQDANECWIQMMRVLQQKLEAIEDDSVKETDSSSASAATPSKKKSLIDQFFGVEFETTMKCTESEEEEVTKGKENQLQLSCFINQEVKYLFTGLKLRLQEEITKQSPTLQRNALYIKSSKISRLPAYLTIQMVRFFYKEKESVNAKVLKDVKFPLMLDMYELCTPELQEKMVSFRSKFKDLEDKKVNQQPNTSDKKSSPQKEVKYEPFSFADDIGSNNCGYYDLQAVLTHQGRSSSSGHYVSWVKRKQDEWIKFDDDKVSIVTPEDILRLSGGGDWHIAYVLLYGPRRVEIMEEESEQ
# UniProt P78527, whole entry: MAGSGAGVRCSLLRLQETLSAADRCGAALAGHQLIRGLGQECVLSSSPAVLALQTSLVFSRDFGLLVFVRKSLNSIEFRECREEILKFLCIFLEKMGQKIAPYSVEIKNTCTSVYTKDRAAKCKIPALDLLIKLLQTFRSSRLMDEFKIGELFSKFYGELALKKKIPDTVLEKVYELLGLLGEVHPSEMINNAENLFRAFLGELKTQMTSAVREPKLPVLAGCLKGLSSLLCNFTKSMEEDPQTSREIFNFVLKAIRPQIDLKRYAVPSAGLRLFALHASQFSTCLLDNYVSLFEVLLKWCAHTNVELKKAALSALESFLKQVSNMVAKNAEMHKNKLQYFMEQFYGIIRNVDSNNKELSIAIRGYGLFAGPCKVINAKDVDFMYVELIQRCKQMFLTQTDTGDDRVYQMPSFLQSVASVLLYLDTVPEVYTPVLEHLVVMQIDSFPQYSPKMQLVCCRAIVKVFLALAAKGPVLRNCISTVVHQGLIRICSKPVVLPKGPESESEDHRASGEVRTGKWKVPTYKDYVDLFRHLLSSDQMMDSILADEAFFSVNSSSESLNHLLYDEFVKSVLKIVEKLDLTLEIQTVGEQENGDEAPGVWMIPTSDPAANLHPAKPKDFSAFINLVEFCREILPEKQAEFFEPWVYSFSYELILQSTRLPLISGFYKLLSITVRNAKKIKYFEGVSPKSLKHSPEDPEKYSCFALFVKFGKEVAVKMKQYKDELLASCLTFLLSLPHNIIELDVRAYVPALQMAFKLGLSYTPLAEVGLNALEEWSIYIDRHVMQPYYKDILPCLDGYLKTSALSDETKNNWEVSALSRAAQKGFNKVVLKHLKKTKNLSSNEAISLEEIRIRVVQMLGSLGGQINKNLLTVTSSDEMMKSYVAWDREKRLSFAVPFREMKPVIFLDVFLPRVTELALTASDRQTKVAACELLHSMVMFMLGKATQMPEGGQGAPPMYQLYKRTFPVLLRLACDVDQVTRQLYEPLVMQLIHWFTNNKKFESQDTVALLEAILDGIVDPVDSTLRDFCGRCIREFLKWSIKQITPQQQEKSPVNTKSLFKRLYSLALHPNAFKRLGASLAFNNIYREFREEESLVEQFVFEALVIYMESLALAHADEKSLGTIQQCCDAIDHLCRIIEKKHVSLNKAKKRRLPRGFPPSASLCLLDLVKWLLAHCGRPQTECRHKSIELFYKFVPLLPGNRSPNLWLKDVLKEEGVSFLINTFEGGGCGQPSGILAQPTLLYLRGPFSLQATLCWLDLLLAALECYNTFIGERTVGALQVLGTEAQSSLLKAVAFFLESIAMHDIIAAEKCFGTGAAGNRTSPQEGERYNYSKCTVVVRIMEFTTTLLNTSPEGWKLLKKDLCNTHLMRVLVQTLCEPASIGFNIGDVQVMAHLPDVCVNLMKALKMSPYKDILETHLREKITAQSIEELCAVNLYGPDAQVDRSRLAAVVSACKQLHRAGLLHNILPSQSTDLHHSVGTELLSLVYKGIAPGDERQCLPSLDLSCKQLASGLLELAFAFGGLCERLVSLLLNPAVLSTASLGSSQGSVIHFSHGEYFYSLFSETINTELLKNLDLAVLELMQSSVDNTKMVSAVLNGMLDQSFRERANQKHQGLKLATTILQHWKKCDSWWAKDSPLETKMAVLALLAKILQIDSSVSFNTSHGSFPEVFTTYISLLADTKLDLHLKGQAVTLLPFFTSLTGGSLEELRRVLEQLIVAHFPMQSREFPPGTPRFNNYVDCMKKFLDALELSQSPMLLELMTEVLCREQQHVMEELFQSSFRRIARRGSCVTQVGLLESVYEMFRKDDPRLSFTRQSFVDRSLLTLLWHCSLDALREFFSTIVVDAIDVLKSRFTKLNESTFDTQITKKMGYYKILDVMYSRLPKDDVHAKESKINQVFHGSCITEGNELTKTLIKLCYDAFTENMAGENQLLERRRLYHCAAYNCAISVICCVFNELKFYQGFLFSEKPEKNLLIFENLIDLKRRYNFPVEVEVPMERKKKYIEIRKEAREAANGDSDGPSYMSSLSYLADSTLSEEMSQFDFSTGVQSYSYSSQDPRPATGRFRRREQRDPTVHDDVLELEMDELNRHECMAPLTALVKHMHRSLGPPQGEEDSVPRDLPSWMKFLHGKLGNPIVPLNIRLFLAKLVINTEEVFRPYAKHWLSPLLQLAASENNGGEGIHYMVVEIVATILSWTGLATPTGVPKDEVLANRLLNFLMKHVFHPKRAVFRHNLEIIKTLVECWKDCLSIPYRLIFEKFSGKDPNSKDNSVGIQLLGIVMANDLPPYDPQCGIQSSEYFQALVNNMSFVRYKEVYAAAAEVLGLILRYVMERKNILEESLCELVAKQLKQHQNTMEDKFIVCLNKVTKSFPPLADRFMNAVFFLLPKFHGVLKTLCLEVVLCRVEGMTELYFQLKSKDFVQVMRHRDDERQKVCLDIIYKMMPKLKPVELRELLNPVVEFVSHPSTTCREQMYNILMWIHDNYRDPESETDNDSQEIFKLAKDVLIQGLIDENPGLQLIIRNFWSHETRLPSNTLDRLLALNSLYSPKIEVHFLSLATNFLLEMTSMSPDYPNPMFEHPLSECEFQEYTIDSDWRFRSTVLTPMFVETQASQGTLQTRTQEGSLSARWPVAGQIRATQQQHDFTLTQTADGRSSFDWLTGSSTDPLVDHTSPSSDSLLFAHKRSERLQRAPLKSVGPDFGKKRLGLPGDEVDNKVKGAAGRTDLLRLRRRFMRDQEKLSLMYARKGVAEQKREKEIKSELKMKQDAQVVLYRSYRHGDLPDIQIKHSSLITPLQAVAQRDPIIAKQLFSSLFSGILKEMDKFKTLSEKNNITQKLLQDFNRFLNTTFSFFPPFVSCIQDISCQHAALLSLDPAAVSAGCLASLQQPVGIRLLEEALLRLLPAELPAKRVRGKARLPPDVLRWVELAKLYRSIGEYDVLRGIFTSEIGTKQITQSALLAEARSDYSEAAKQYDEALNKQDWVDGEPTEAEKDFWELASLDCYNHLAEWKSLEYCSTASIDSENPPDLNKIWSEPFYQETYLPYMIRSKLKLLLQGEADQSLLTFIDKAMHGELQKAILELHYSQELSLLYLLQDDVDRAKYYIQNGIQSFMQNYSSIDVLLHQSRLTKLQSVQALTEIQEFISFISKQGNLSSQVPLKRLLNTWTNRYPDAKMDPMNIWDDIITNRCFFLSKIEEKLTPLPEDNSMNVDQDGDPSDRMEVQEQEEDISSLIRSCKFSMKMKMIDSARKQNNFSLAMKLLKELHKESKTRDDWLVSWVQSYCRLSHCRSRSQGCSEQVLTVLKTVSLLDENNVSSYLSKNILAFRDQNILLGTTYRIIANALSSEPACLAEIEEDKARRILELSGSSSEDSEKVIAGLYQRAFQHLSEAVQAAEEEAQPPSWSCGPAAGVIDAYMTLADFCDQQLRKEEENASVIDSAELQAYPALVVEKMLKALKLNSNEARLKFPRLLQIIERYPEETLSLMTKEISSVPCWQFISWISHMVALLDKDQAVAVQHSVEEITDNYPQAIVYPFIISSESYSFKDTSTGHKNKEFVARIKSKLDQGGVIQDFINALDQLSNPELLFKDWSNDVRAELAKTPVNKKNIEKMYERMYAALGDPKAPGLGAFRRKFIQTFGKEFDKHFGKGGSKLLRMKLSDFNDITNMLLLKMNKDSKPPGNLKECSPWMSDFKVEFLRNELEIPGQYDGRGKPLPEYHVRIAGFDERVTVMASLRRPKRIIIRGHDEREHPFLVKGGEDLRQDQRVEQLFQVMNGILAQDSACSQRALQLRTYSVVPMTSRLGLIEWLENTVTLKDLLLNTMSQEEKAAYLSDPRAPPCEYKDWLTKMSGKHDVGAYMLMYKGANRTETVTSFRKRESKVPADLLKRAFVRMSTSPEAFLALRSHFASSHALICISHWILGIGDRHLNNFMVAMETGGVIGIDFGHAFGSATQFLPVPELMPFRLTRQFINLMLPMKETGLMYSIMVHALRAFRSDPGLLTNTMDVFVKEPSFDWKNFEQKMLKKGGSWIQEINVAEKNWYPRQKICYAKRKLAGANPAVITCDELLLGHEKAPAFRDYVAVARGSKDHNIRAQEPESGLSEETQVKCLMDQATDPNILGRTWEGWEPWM
# Assays:
# human USP14 = human USP14 (Homo sapiens, UniProt P54578); settings: cited from earlier work
# DNA-PK = DNA-PK (Homo sapiens, UniProt P78527); settings: read-out: IC50 DNA-PK; cited from earlier work
# HDAC1A = settings: cited from earlier work
# [1] = target: T1, ubiquitin C-terminal hydrolase L3 (Homo sapiens, UniProt P15374); settings: L3 vs L1; cited from earlier work
# T1 sequence (P15374 1-230): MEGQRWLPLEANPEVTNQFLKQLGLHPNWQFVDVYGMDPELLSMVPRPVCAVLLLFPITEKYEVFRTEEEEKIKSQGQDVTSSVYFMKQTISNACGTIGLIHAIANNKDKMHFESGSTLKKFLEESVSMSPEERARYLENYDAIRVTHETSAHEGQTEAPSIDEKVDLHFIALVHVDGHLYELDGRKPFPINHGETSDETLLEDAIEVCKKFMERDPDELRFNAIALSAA
molecule,measurement,setting,value
Cc1cc(C(=O)CN2CCCC2)c(C)n1-c1ccc(F)cc1 [IU1],pIC50,human USP14,5.33
COC[C@H]1OC(=O)c2coc3c2[C@@]1(C)C1=C(C3=O)[C@@H]2CCC(=O)[C@@]2(C)C[C@H]1OC(C)=O [Wortmannin],pIC50,DNA-PK,7.80
Givinostat,pIC50,HDAC1A,7.80
TCID,selective to L1,[1],125 fold

# pIC50: −log10 of the molar value.
